As a reminder, the IC50 is the concentration at which inhibition is half-maximal.

Protein sequences, listed by entry. Tags and fused reporters are not part of them.
UniProt Q15910, whole entry Y641F: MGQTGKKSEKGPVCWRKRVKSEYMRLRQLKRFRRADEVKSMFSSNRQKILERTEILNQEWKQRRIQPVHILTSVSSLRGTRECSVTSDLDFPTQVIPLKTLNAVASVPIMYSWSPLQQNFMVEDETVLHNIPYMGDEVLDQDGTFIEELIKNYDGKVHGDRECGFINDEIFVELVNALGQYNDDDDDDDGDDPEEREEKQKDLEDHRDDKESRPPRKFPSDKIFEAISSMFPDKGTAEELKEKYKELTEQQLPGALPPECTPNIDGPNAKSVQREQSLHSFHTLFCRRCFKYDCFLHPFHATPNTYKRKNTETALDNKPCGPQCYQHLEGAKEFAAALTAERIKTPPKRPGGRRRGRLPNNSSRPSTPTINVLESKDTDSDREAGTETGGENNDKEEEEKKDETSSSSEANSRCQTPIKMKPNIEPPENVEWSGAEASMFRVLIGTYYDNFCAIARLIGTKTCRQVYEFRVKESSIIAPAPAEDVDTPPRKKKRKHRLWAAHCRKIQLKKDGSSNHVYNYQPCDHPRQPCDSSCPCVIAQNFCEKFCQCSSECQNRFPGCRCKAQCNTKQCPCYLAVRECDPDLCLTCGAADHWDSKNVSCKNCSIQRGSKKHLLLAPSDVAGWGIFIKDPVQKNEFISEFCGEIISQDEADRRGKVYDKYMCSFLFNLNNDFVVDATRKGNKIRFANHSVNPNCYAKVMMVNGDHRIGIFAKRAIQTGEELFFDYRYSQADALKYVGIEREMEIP
UniProt Q15910, whole entry: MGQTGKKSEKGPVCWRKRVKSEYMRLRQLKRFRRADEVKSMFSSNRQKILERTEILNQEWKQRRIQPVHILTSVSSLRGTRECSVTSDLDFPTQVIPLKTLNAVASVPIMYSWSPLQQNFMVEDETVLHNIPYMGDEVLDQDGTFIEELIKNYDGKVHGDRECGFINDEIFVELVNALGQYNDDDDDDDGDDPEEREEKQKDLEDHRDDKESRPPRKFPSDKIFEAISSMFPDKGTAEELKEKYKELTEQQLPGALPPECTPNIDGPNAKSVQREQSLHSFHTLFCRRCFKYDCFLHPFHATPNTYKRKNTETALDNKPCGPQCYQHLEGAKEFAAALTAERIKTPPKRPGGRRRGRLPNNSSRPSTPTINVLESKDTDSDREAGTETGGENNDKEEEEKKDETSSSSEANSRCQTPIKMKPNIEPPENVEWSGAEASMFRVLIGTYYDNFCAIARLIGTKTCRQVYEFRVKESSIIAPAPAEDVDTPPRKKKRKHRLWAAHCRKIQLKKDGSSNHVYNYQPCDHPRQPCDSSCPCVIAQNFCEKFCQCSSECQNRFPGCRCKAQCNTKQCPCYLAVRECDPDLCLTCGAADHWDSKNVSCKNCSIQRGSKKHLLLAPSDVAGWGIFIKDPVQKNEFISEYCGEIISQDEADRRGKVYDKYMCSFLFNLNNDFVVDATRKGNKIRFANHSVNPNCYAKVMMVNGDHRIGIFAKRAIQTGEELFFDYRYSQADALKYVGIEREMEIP

In assay [1] the target is Histone-lysine N-methyltransferase EZH2 (Homo sapiens, UniProt Q15910, Y641F).
Assay [2] addresses Histone-lysine N-methyltransferase EZH2 (Homo sapiens, UniProt Q15910).

In the case of `Cc1cc(C)c(CNC(=O)c2cc3cccn3c(C(C)N3CCOCC3)c2C)c(=O)[nH]1` (configuration not stated), the IC50 in assay [1] and in assay [2] was less than 100 nM each time.

Consider `CCN(c1cc(O[C@H]2C[C@H](N3CCCCC3)C2)cc(C(=O)NCc2c(OC)cc(C)[nH]c2=O)c1C)C1CCC(F)(F)CC1`, for which the midpoint of inhibition in assay [2], the IC50, lay at 0.6 nM.

Consider `CCN(c1cc(O[C@H]2C[C@H](N3CCCCC3)C2)cc(C(=O)NCc2c(C)cc(C)[nH]c2=O)c1C)C1CCC(F)(F)CC1`, for which the IC50 in assay [1] was found to be 0.6 nM; in assay [2], 1 nM.

On to `COc1cc(C)[nH]c(=O)c1CNC(=O)c1cc2c(-c3ccn[nH]3)ccn2c(C(C)N2CCN(CC(F)(F)F)CC2)c1C` (configuration not stated), for which the IC50 in assay [1] and in assay [2] was less than 100 nM each time.

Source of the values: ChEMBL document CHEMBL5120864, “Targeting Enhancer of Zeste Homolog 2 for the Treatment of Hematological Malignancies and Solid Tumors: Candidate Structure-Activity Relationships Insights and Evolution Prospects” (J Med Chem, 2022).
